Molecular target: untagged recombinant rat lactate dehydrogenase A (rat) (UniProt P04642)
Assay: SEC-MALS; 100 uL of 1 mg/mL rLDHA on Superdex-200 10/300 GL in Buffer-C (100 mM HEPES pH 7.5, 150 mM NaCl), 22°C, 0.5 mL/min; homo-polymer model

stoichiometry N: 4
Substance: untagged recombinant rat lactate dehydrogenase A (from UniProt P04642 1-332) (enzyme)

From article PMC4696747, “A Streamlined, Automated Protocol for the Production of Milligram Quantities of Untagged Recombinant Rat Lactate Dehydrogenase A Using ÄKTAxpress^TM” (PLoS ONE, 2015)
